The values below come from patent US10933061B2 (Shepherd Therapeutics, Inc., priority 2017, dated 2021).

The test has as its system Rh41 rhabdomyosarcoma cells. Kind of test: Chou-Talalay combination assay, Cell Titer Glo. The test is classed as cell-based. The conditions noted are these: combination with pyrvinium pamoate, 72 hour incubation.

On to `COc1cccc2c1C(=O)c1c(O)c3c(c(O)c1C2=O)C[C@@](O)(C(=O)CO)C[C@@H]3O[C@H]1C[C@H](N)[C@H](O)[C@H](C)O1` [Doxorubicin], for which the CI range was 0.101-0.831.
